The subject of the experiment is E. cloacae strain no 6.

The values that follow come from patent US10828317B2, “Method of treating bacterial infections” (priority 2016, dated 2020).

Where two headings read alike, the source gives them in different places.

In the case of `O=c1[nH]c(=O)n([C@H]2C[C@H](O)[C@@H](CO)O2)cc1F` [FdUrd, Fluorodeoxyuridine], the “MIC FdUrd” value by setting is: (trimethoprim 0, uridine 0 μg/ml) more than 30 µg/mL; (trimethoprim 0, uridine 10 μg/ml) more than 30 µg/mL; (trimethoprim 1, uridine 0 μg/ml) more than 2.5 µg/mL; (trimethoprim 1, uridine 10 μg/ml) more than 2.5 µg/mL.
